# Experimental data reported in patent US7935702B2, “Substituted biaryl quinolin-4-ylamine analogues” (Neurogen Corporation, priority 2004, dated 2011).
# Protein sequences, listed by entry. Tags and fused reporters are not part of them.
# UniProt Q8NER1, whole entry: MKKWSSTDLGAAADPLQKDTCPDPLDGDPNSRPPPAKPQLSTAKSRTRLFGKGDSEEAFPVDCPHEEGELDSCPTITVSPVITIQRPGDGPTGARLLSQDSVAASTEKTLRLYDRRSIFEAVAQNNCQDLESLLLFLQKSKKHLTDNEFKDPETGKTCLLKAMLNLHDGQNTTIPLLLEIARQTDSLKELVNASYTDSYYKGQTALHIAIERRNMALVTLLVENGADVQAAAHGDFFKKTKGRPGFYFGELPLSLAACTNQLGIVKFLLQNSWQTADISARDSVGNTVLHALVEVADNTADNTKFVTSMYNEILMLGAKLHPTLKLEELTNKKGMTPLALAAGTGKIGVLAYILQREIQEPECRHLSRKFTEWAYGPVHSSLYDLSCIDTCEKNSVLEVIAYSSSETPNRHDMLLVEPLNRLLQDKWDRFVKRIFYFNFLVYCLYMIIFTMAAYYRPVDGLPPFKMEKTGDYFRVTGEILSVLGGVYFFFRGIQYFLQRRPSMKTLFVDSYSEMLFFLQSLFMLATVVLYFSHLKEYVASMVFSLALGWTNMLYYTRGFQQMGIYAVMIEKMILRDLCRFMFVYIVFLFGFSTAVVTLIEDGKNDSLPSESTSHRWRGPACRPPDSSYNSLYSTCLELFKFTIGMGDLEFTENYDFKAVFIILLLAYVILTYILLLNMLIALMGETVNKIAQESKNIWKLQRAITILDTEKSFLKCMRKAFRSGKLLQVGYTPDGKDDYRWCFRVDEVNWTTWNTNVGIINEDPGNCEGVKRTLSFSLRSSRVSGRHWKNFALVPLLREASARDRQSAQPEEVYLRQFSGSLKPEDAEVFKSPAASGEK
# Target: human capsaicin receptor (Homo sapiens, UniProt Q8NER1)
# Experiment: Calcium mobilization assay, determination of antagonist activity (Example 6)
# Conditions: read-out: IC50 determined as described in Example 6; cells expressing human capsaicin receptor; capsaicin at EC50
# Protocol: A cDNA encoding full length human capsaicin receptor (SEQ ID NO:1, 2 or 3 of U.S. Pat. No. 6,482,611) is subcloned in the plasmid pBK-CMV (Stratagene, La Jolla, Calif.) for recombinant expression in mammalian cells.
# Human embryonic kidney (HEK293) cells are transfected with the pBK-CMV expression construct encoding the full length human capsaicin receptor using standard methods. The transfected cells are selected for two weeks in media containing G418 (400 μg/ml) to obtain a pool of stably transfected cells. Independent clones are isolated from this pool by limiting dilution to obtain clonal stable cell lines for use in subsequent experiments. […]
# To measure the ability of a test compound to agonize or antagonize a calcium mobilization response in cells expressing capsaicin receptors to capsaicin or other vanilloid agonist, the EC50 of the agonist capsaicin is first determined. […] Capsaicin-induced calcium mobilization is monitored using either FLUOROSKAN ASCENT (Labsystems; Franklin, Mass.) or FLIPR (fluorometric imaging plate reader system; Molecular Devices, Sunnyvale, Calif.) instruments. […] In this equation, y is the maximum fluorescence signal, x is the concentration of the agonist or antagonist (in this case, capsaicin), a is the Emax, b corresponds to the EC50 value and c is the Hill coefficient. […]
structure (smiles),measurement,value
Cc1cc(F)cnc1-c1ccc2c(Nc3ncc(C(F)(F)F)cn3)ccnc2n1,IC50,< 1000 nM
